The experiment concerns the target EGFRvIII on U87-derived transfected cells (UniProt P00533). In words: cell-based or functional assay.

Take BS28-HC (bispecific antibody): the downregulation of total (wild type plus mutant) surface EGFR on U87-derived cell lines was in the range of 60 to 80%.

Values taken from patent publication US20130216543A1.
